Values of other authors as cited in patent US20230100844A1, “IBOGAINE COMBINATION TREATMENT” (ATAI Life Sciences AG, priority 2021, published 2023).

Sequences of proteins named here, by UniProt entry; tags and fusion partners are left off.
UniProt P10635, whole entry: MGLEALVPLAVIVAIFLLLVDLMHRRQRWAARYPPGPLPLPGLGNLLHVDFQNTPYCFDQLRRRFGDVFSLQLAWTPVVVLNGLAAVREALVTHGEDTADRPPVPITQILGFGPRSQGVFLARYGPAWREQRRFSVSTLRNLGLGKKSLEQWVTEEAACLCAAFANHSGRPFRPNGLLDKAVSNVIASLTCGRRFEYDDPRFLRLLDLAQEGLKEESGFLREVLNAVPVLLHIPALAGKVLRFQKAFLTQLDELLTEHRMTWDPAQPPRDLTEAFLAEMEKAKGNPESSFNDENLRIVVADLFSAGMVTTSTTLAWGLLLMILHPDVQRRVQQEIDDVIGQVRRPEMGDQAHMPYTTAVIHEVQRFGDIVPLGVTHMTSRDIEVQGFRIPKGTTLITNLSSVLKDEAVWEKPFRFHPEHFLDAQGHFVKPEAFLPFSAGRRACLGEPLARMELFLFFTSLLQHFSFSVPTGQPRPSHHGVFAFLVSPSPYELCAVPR

Target: T1, CYP2D6 (Homo sapiens, UniProt P10635)
T1 construct: host or cells: human subjects (endogenous enzyme of gut wall and liver)
Conditions: humans; cited from earlier work

CNCCC(Oc1ccc(C(F)(F)F)cc1)c1ccccc1 (stereo not shown) [Fluoxetine, fluoxetine]
in vivo CYP2D6 inhibition: shown to inhibit CYP2D6 in humans after single administration
